Data: ChEMBL document CHEMBL1146370 (Bioorg Med Chem, 2007)

Amino acid sequences for entries named in this document (tags omitted).
UniProt P37288, whole entry: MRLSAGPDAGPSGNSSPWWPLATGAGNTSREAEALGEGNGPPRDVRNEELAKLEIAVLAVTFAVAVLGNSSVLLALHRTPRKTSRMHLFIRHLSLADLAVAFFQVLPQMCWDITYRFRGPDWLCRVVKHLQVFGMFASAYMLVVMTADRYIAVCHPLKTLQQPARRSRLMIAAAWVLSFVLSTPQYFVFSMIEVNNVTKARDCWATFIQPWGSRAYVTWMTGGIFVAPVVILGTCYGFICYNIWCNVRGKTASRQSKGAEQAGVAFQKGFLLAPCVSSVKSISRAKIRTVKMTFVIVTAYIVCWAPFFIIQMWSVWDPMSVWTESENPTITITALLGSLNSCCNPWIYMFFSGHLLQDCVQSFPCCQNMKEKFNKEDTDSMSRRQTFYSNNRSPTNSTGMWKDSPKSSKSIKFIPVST

Target: Vasopressin V1a receptor (Homo sapiens, UniProt P37288)
Assay: Binding affinity for human cloned vasopressin V1a receptor expressed in CHO cells
Assay type: cell-based
Summary of the method: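 Whole-cell competition binding on CHO cells stably expressing human V1a, grown in alpha-MEM with 10% FBS and 250 ug/ml G418. Cells were plated at least 2 days ahead and incubated 30 min at 37 °C in HEPES/BSA/DMEM buffer (pH 7.0) with 1 nM [3H]AVP and 5 test concentrations (usually 0.1–1000 nM), in triplicate. Nonspecific binding was set with 100 nM AVP. Bound radioactivity was SDS-lysed and scintillation-counted. Curve-fit IC50 was converted to Ki with a 0.61 factor.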

| IC50 | Ki | Compound |
| --- | --- | --- |
| 39 nM |  | CC(C)C[C@@H](C(=O)OCc1ccccc1)N1C(=O)[C@@H](N2C(=O)OC[C@@H]2c2ccccc2)[C@H]1/C=C/c1ccccc1 |
|  | 1.13 nM | O=C(NCc1cccc(C(F)(F)F)c1F)[C@H](CC(=O)N1CCC(N2CCCCC2)CC1)N1C(=O)[C@@H](N2C(=O)OC[C@@H]2c2ccccc2)[C@H]1/C=C/c1ccccc1 |
| 10 nM |  | CC(C)(C)C(O)C(C(=O)OCc1ccccc1)N1C(=O)[C@@H](N2C(=O)OC[C@@H]2c2ccccc2)[C@H]1/C=C/c1ccccc1 (some centres undefined) |
| 43 nM |  | CC1(C(C(=O)NCc2ccccc2)N2C(=O)[C@@H](N3C(=O)OC[C@@H]3c3ccccc3)[C@H]2/C=C/c2ccccc2)OCCO1 (some centres undefined) |
